These results are taken from PubChem BioAssay AID1645882 (National Center for Advancing Translational Sciences (NCATS), 2021).

The chains behind the UniProt entries cited, without tags or fusion partners.
UniProt O95398, whole entry: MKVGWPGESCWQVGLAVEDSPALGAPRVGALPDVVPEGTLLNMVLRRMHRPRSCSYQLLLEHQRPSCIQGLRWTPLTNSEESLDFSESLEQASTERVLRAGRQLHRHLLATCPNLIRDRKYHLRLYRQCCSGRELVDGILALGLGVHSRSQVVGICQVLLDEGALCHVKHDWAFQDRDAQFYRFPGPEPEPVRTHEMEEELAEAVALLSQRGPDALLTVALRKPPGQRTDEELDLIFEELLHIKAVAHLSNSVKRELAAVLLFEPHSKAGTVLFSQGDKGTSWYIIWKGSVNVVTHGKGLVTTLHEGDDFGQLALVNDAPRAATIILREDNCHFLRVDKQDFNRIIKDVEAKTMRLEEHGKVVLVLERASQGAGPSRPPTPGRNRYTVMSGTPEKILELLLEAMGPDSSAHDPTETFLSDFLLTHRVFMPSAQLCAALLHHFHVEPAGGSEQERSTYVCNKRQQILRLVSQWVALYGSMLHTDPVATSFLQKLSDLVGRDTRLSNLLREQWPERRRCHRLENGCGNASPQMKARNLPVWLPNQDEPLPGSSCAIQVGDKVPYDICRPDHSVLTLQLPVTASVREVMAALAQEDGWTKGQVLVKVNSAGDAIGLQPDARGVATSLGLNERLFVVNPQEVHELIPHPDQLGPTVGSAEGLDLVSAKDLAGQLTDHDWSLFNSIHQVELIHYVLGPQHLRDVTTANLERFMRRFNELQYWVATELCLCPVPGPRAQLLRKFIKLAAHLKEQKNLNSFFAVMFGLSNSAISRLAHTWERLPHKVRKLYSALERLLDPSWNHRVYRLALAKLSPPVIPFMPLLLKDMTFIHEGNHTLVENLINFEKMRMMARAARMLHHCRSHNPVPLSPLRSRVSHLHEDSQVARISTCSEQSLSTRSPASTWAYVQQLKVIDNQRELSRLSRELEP

Molecules are shown by their SMILES. Only a part is listed here, and it is no random draw. Some results for these compounds are left out of this collection, so the calls shown say nothing about other tests. Inconclusive results are not listed. Calls of active or inactive are those of the source. Calls come from the whole dose curve; as a rule, active = well fitted inhibition curve with a large enough effect; inconclusive = small, poorly fitted or top-dose-only effect; inactive = no such curve, though single readings can be large or run the other way.

This test concerns the target Rap guanine nucleotide exchange factor 3 (Homo sapiens) (UniProt O95398). The test can be described thus: Validation qHTS for antagonist of cAMP-regulated guanine nucleotide exchange factor 3 (EPAC1).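 Note: plate controls were DMSO for no effect and ATA control for full effect; nearly all actives have a fitted effect of over 75% in size.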 To be noted: EPAC1 Rap1B-BODIPY-GDP exchange, fluorescence; at 150 µM (top of the series). The source says:
Assay Provider (PI): Xiaodong Cheng Ph.D.
The University of Texas Medical Branch, […], TX
In multi-cellular eukaryotic organisms, the effects of cAMP are transduced by two ubiquitously-expressed intracellular cAMP receptors, the classic protein kinase A/cAMP-dependent protein kinase (PKA/cAPK) and the more recently discovered exchange protein directly activated by cAMP/cAMP-regulated guanine nucleotide exchange factor (EPAC/cAMP-GEF). Both PKA and EPAC are ubiquitously expressed in all tissues, and an increase in intracellular cAMP levels will lead to the activation of both PKA and EPAC. […]
This qHTS will be used to screen the Molecular Libraries Small Molecule Repository (MLSMR) as a concentration-titration series using the NCGC unique quantitative screening (qHTS) platform to find activators for EPAC1. […] Activators are identified by monitoring the change in fluorescence signal as the exchanged free BODIPY-GDP has a reduced fluorescence compared to Rap1-bound BODIPY-GDP. […]
Briefly, three uL of reagents (100 nM EPAC1, 250 nM RAP1B-BODIPY-GDP, 50 uM GDP) were dispensed into a 1536-well Greiner black solid-bottom medium binding assay plate. […] The assay plates were read at 5 minute intervals for 30 minutes in the ViewLux plate reader using 480nm excitation and 540nm emission filters. […]
For orientation: Quantitative high-throughput screening tests each substance at several concentrations.
`CN1CCCC(OC(=O)C(O)(c2ccccc2)c2ccccc2)C1` (stereo unspecified): the activity change, negative = inhibition is inactive: 9.54%.
